Assay results: publication PMC5468338, “Novel Class IIa-Selective Histone Deacetylase Inhibitors Discovered Using an in Silico Virtual Screening Approach” (Scientific Reports, 2017)
Read-outs that look alike come from different tables or passages of the source.

Sequences of proteins named here, by UniProt entry; tags and fusion partners are left off.
UniProt Q9UQL6, whole entry: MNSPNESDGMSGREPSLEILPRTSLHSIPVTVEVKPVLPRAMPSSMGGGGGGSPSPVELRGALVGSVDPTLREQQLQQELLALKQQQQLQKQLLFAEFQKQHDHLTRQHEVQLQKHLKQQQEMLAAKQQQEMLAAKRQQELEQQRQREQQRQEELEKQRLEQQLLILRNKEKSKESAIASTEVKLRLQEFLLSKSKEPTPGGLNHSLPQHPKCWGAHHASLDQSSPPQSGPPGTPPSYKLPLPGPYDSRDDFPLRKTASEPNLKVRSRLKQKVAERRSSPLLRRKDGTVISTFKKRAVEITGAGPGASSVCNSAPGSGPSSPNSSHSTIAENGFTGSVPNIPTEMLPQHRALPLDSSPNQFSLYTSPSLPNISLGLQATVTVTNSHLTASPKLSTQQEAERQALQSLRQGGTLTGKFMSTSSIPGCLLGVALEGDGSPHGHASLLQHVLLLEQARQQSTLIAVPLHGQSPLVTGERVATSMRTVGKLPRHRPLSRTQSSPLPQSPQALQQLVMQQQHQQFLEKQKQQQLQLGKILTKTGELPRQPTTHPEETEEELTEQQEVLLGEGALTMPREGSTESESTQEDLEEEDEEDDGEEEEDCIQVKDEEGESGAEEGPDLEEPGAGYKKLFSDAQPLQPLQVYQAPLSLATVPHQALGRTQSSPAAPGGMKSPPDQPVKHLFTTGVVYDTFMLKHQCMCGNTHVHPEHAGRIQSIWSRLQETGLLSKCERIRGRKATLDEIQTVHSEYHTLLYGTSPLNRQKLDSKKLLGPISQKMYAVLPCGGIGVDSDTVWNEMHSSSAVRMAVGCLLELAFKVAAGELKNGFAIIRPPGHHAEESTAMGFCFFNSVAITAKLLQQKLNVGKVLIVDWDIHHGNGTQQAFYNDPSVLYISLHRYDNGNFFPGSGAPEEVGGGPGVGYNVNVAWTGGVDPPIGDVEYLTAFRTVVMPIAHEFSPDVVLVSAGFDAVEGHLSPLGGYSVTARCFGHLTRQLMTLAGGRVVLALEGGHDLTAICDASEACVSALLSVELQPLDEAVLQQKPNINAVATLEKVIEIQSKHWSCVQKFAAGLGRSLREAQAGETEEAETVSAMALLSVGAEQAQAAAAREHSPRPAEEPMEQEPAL
UniProt Q8WUI4, whole entry: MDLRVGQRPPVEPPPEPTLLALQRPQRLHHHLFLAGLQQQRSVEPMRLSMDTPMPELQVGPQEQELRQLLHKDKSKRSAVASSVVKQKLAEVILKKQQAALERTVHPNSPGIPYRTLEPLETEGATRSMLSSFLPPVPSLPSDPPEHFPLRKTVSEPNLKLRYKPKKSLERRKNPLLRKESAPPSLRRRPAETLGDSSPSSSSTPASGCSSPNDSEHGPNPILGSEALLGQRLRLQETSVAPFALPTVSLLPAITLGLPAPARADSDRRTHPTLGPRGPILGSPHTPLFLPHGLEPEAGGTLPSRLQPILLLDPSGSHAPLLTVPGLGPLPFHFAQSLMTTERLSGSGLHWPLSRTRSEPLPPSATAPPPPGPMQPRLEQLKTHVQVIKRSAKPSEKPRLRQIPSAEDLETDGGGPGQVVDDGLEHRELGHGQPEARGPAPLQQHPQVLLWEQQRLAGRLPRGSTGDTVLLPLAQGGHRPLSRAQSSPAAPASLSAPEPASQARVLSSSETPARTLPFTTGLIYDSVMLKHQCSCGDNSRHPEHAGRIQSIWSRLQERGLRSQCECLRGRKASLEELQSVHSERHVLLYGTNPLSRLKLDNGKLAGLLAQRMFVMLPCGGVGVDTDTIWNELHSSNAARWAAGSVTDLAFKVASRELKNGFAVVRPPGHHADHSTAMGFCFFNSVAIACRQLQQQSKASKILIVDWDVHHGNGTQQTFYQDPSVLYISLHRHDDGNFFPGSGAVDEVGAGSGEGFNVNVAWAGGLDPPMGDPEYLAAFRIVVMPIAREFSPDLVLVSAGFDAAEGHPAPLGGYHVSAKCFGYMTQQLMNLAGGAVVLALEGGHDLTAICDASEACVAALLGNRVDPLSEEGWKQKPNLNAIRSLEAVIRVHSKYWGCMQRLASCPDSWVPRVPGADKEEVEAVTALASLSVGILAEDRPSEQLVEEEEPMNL
UniProt Q9UKV0, whole entry: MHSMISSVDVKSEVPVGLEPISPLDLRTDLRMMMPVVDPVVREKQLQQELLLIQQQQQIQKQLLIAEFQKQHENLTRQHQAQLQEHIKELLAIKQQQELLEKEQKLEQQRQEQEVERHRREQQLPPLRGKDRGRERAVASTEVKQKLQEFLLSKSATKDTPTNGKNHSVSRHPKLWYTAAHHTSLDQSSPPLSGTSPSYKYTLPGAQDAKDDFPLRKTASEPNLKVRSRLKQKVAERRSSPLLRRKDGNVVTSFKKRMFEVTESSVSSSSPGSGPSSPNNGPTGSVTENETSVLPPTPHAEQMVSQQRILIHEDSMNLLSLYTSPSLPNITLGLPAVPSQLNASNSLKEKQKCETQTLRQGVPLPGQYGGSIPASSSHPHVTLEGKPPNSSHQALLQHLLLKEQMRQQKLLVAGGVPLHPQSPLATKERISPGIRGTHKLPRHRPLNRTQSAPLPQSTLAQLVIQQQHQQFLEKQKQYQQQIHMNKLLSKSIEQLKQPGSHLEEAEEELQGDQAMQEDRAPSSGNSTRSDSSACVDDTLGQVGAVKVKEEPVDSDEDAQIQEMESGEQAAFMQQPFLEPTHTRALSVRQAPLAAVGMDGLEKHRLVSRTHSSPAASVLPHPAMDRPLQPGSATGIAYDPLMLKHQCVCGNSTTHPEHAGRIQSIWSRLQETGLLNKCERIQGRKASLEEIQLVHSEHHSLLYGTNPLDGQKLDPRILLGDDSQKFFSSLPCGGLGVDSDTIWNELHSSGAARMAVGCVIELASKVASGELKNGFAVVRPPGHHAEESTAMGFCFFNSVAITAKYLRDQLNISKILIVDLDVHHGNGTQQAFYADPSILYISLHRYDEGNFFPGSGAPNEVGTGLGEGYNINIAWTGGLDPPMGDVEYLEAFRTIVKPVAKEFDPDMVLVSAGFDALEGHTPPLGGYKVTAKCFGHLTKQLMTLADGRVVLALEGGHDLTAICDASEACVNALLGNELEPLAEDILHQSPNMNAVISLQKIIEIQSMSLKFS
UniProt P56524, whole entry: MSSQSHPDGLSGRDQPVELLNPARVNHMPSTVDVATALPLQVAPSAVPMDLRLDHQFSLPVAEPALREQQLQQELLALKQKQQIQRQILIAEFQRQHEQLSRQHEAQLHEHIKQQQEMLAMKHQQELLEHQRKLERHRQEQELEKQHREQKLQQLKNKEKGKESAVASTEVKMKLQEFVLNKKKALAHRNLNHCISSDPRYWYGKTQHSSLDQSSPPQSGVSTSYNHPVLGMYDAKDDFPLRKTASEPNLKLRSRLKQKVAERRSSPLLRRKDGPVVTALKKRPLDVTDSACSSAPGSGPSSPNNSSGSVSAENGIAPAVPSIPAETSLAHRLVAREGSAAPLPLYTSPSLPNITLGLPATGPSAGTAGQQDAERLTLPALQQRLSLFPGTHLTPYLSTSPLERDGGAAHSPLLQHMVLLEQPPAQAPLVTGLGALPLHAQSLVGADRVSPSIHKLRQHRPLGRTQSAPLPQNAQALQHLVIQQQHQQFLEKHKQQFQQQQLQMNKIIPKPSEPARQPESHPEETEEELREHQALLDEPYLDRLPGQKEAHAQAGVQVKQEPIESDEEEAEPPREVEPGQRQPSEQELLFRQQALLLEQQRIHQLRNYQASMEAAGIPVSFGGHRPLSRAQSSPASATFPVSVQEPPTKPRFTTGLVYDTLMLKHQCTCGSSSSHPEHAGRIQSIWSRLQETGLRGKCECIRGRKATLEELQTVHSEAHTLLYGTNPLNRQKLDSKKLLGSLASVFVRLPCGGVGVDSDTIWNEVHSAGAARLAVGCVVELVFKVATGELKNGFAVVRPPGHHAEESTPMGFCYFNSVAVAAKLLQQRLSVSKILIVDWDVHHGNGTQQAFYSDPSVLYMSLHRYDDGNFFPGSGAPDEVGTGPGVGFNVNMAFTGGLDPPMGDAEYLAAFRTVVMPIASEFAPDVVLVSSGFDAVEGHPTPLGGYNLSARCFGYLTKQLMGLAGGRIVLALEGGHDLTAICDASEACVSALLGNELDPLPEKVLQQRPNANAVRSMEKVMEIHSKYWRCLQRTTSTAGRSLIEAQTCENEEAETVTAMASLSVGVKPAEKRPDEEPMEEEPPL
UniProt Q9UBN7, whole entry: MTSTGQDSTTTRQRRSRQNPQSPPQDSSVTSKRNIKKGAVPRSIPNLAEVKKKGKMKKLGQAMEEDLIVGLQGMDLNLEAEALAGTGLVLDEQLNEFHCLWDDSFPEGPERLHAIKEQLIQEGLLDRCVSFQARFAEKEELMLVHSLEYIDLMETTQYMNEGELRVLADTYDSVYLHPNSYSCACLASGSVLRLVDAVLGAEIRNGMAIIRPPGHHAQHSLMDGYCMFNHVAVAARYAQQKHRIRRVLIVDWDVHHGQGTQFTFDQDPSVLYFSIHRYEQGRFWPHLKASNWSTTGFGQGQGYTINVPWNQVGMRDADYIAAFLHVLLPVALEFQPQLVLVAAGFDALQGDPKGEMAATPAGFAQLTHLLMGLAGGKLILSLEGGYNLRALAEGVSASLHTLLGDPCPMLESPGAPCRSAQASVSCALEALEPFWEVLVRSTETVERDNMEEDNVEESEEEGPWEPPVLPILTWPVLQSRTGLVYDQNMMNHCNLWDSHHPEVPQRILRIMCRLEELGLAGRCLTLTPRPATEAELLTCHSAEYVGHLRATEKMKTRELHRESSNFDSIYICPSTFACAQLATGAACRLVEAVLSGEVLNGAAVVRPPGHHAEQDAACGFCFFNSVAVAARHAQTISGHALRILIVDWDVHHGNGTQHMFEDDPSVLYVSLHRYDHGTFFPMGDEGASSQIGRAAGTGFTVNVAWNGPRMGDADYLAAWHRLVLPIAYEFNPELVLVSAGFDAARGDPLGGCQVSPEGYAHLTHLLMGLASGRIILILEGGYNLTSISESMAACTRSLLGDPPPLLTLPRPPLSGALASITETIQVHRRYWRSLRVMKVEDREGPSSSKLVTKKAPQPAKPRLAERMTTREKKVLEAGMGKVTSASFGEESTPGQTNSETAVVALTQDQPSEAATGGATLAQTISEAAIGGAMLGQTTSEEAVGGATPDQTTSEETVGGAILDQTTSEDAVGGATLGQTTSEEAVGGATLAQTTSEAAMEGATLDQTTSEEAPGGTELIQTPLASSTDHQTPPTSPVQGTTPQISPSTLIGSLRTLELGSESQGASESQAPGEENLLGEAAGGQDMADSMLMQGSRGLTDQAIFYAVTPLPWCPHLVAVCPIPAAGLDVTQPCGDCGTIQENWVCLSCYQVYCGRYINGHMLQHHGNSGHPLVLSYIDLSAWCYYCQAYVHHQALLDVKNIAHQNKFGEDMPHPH

Tests used:
[1] = target: HDAC5 (Homo sapiens, UniProt Q9UQL6); assay: HDAC fluorometric activity assay, HDAC5; details: read-out: IC50 HDAC5 (Class IIa); Table 2; mean of three independent experiments
[2] = target: HDAC7 (Homo sapiens, UniProt Q8WUI4); assay: HDAC fluorometric activity assay, HDAC7; details: read-out: IC50 HDAC7 (Class IIa); Table 2; mean of three independent experiments
[3] = target: HDAC9 (Homo sapiens, UniProt Q9UKV0); assay: HDAC fluorometric activity assay, HDAC9; details: read-out: IC50 HDAC9 (Class IIa); Table 2; mean of three independent experiments
[4] = target: HDAC4 (Homo sapiens, UniProt P56524); assay: HDAC fluorometric activity assay, HDAC4; details: for HDAC4 inhibitory activity in initial screen compared to SAHA: tested at 40 μM, SAHA as reference
[5] = target: HDAC6 (Homo sapiens, UniProt Q9UBN7); assay: HDAC fluorometric activity assay, HDAC6; details: read-out: IC50 HDAC6 (Class IIb); Table 2; mean of three independent experiments
[6] = read-out: IC50 HDAC4 (Class IIa), Table 2, mean of three independent experiments

| SMILES | IC50 [1] | IC50 [2] | IC50 [3] | HDAC4 inhibitory activity compared to SAHA (in words) ([4]; IC50 determination) | IC50 [4, 6] | HDAC4 inhibitory activity in initial screen compared to SAHA [4] | IC50 [5] | IC50 ([4]; read-out: IC50 of HDAC4 inhibitory activity, Table 1, Boc-Lys(TFA)-AMC 10 μM substrate) |
| --- | --- | --- | --- | --- | --- | --- | --- | --- |
| CC(Cc1ccc(O)c(O)c1)C(C)Cc1ccc(O)c(O)c1 (centres unmarked) | 23.4 µM | > 40 µM | 0.58 µM | moderate compared to SAHA | 24.7 µM | significantly higher inhibitory activities | > 40 µM |  |
| CN(Cc1cnc2nc(N)nc(N)c2n1)c1ccc(C(=O)NC(CCP(=O)(O)O)P(=O)(O)O)cc1 (centres unmarked) |  |  |  |  |  | significantly higher inhibitory activities |  |  |
| NC(Cc1cc(O)c(O)c(S(=O)(=O)c2ccccc2)c1)C(=O)O (centres unmarked) | 2.94 µM | > 40 µM | 12.9 µM |  | 14.9 µM | significantly higher inhibitory activities | > 40 µM | 14.9 µM |
| Cc1cc2c(C(C)C)c(O)c(O)cc2c(O)c1-c1c(C)cc2c(C(C)C)c(O)c(O)cc2c1O |  | > 40 µM | 7.14 µM |  | 4.47 µM | significantly higher inhibitory activities | > 40 µM |  |
